Structures are written as SMILES. Read-outs that look alike come from different tables or passages of the source.

Protein sequences, listed by entry. Tags and fused reporters are not part of them.
UniProt P34969, whole entry: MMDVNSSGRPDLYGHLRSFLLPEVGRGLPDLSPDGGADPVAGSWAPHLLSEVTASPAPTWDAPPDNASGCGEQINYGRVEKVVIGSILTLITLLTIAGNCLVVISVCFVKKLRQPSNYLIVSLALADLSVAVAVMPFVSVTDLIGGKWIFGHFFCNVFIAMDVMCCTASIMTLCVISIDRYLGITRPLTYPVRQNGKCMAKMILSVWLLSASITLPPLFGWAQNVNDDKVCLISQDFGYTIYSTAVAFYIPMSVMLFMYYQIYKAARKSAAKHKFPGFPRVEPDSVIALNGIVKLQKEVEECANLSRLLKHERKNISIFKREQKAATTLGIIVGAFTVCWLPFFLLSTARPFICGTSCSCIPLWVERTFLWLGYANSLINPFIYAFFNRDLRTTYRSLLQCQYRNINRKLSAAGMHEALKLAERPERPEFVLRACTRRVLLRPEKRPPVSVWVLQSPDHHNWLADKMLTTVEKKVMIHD

From US10369134B2, “Nonracemic mixtures and uses thereof” (Sunovion Pharmaceuticals Inc., priority 2017, dated 2019) come the findings set out here.

The assay concerns the target T1, Serotonin 5-HT7 receptors (Homo sapiens, UniProt P34969).
T1 construct: host or cells: CHO-K1 cells
Kind of assay: Serotonin 5-HT7 radioligand binding ([3H]LSD).

The mark [1] stands for this setting: Table 5, average ± 1 standard deviation, n=3, read-out: in vitro Ki values 5-HT7.

Turning to `CCN1CCC[C@H]1CNC(=O)c1cc(S(=O)(=O)CC)c(N)cc1OC` [(S)-amisulpride, S-4-Amino-N-[(1-ethyl-2-pyrrolidinyl)methyl]-5-(ethylsulfonyl)-2-methoxybenzamide], the Ki under setting [1] came out at 1860 nM.

Consider `CCN1CCCC1CNC(=O)c1cc(S(=O)(=O)CC)c(N)cc1OC` (racemic) [racemic amisulpride, 4-amino-N-[(1-ethylpyrrolidin-2-yl)methyl]-5-ethylsulfonyl-2-methoxy-benzamide, reference compound], for which the inhibition constant (Ki) was 89 ± 2 nM (Table 4, human 5-HT7 in CHO-K1 cells, ± standard error of the mean, read-out: inhibitor constant (Ki) Serotonin 5-HT7) and 89 ± 2 nM under setting [1]. On to `CCN1CCC[C@@H]1CNC(=O)c1cc(S(=O)(=O)CC)c(N)cc1OC` [(R)-amisulpride, R-4-Amino-N-[(1-ethyl-2-pyrrolidinyl)methyl]-5-(ethylsulfonyl)-2-methoxybenzamide], for which the Ki under setting [1] was 47 ± 4 nM.
